Read-outs that look alike come from different tables or passages of the source.
Tests used:
[1] = target: JNK3(h) (Homo sapiens, UniProt P53779); assay: biochemical
[2] = target: CaMKIIalpha(h) (Homo sapiens, UniProt Q9UQM7); assay: biochemical
[3] = target: LTK(h) (Homo sapiens, UniProt P29376); assay: biochemical
[4] = target: Hck(h) (Homo sapiens, UniProt P08631); assay: biochemical
[5] = target: NIM1(h) (Homo sapiens, UniProt Q8IY84); assay: biochemical
[6] = target: Snk(h) (Homo sapiens, UniProt Q9NYY3); assay: biochemical
[7] = target: NEK1(h) (Homo sapiens, UniProt Q96PY6); assay: biochemical
[8] = target: MELK(h) (Homo sapiens, UniProt Q14680); assay: biochemical
[9] = target: PKCgamma(h) (Homo sapiens, UniProt P05129); assay: biochemical
[10] = target: Tie2(h) (Homo sapiens, UniProt Q02763); assay: biochemical
[11] = target: PKCalpha(h) (Homo sapiens, UniProt P17252); assay: biochemical
[12] = target: EphA8(h) (Homo sapiens, UniProt P29322); assay: biochemical
[13] = target: Flt1(h) (Homo sapiens, UniProt P17948); assay: biochemical
[14] = target: PDGFRalpha(h) (Homo sapiens, UniProt P16234); assay: biochemical
[15] = target: BAP1 (Homo sapiens, UniProt Q92560); assay: biochemical; details: read-out: Activity (% Control)
[16] = target: ALK2(h) (Homo sapiens, UniProt Q04771); assay: biochemical
[17] = target: EphA3(h) (Homo sapiens, UniProt P29320); assay: biochemical
[18] = target: Aurora-B(h) (Homo sapiens, UniProt Q96GD4); assay: biochemical
[19] = target: Syk(h) (Homo sapiens, UniProt P43405); assay: biochemical
[20] = target: SIK(h) (Homo sapiens, UniProt P57059); assay: biochemical
[21] = target: LATS1(h) (Homo sapiens, UniProt O95835); assay: biochemical
[22] = target: EGFR(h) (Homo sapiens, UniProt P00533); assay: biochemical
[23] = target: NEK3(h) (Homo sapiens, UniProt P51956); assay: biochemical
[24] = target: MAP4K3(h) (Homo sapiens, UniProt Q8IVH8); assay: biochemical
[25] = system: Glutamate, Kainate; details: 10 µM
[26] = target: T1, USP2 (Homo sapiens, UniProt O75604); assay: biochemical; details: read-out: Activity (% Control)
[27] = target: USP46/UAF1/WDR20 (Homo sapiens, UniProt P62068); assay: biochemical; details: read-out: Activity (% Control)
[28] = target: SGK3(h) (Homo sapiens, UniProt Q96BR1); assay: biochemical
[29] = target: STK32C(h) (Homo sapiens, UniProt Q86UX6); assay: biochemical
[30] = target: Lck(h) (Homo sapiens, UniProt P06239); assay: biochemical
[31] = target: NEK6(h) (Homo sapiens, UniProt Q9HC98); assay: biochemical
[32] = target: HIPK4(h) (Homo sapiens, UniProt Q8NE63); assay: biochemical
[33] = target: MSK1(h) (Homo sapiens, UniProt O75582); assay: biochemical
[34] = system: U2OS; assay: cells; details: Homo sapiens, 72 h, read-out: antiproliferative effect
[35] = target: IR(h), activated (Homo sapiens, UniProt P06213); assay: biochemical
[36] = target: T1, USP2; assay: biochemical; details: read-out: Activity (% Control); remark: listed apart in the source
[37] = system: six cysteine proteases; details: all six cysteine proteases
[38] = target: USP28 (Homo sapiens, UniProt Q96RU2); assay: biochemical; details: read-out: Activity (% Control)
[39] = target: CRIK(h) (Homo sapiens, UniProt O14578); assay: biochemical
[40] = target: Plk4(h) (Homo sapiens, UniProt O00444); assay: biochemical
[41] = target: PKCbetaI(h) (Homo sapiens, UniProt P05771); assay: biochemical
[42] = target: SBK1(h) (Homo sapiens, UniProt Q52WX2); assay: biochemical

Protein sequences, listed by entry. Tags and fused reporters are not part of them. Lines headed by an entry give the natural chain unless they say otherwise; changes in a name come on top. Residues count along the entry.
UniProt Q9UQM7, whole entry: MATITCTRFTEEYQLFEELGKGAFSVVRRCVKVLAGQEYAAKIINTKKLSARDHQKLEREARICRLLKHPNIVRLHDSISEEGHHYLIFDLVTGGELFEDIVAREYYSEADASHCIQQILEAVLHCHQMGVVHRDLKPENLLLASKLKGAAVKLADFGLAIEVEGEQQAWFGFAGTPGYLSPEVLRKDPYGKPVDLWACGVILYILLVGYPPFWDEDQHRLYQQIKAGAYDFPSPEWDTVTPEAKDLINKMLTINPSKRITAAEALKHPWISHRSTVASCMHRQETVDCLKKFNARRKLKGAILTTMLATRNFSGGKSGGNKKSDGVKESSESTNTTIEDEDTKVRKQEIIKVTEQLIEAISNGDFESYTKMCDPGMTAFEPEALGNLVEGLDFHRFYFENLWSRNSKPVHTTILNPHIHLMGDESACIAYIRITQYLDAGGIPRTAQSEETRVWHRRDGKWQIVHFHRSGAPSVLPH
UniProt Q8IY84: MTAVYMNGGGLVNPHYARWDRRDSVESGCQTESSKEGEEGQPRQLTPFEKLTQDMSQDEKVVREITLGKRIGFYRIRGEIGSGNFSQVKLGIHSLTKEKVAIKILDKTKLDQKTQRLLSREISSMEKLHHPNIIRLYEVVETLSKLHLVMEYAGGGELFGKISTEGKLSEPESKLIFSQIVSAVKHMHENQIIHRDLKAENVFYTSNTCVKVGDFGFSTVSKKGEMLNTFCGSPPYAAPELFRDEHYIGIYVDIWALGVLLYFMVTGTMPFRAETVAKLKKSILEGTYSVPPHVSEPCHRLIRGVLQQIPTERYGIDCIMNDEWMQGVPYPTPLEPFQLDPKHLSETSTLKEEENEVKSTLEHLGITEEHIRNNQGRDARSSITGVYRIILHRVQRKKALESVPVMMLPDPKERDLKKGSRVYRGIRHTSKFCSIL
UniProt P29322, 28-1005: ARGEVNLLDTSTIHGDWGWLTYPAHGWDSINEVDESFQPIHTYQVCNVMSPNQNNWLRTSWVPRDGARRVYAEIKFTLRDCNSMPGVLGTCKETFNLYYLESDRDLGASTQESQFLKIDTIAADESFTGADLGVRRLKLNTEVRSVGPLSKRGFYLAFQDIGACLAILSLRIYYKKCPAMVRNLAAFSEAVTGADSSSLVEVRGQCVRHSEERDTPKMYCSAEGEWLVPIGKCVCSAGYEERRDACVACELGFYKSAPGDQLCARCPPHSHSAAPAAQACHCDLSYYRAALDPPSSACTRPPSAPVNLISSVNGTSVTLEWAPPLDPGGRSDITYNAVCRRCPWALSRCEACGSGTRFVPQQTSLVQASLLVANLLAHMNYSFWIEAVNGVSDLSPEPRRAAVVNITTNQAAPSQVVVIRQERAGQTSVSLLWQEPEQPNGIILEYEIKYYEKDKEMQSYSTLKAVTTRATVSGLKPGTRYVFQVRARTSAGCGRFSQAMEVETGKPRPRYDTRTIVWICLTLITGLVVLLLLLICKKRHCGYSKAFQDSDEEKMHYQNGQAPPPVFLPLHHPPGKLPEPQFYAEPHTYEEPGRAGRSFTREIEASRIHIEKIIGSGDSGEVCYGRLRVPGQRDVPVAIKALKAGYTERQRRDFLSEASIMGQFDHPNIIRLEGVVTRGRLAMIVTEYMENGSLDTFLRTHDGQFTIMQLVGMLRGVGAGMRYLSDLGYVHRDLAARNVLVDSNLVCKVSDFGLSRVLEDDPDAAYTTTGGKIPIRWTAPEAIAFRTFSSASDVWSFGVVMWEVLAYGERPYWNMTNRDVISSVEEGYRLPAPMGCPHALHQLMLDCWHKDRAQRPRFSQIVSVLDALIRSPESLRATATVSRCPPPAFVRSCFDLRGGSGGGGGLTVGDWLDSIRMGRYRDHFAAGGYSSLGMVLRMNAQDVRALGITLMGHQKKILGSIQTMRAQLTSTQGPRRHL
UniProt Q92560: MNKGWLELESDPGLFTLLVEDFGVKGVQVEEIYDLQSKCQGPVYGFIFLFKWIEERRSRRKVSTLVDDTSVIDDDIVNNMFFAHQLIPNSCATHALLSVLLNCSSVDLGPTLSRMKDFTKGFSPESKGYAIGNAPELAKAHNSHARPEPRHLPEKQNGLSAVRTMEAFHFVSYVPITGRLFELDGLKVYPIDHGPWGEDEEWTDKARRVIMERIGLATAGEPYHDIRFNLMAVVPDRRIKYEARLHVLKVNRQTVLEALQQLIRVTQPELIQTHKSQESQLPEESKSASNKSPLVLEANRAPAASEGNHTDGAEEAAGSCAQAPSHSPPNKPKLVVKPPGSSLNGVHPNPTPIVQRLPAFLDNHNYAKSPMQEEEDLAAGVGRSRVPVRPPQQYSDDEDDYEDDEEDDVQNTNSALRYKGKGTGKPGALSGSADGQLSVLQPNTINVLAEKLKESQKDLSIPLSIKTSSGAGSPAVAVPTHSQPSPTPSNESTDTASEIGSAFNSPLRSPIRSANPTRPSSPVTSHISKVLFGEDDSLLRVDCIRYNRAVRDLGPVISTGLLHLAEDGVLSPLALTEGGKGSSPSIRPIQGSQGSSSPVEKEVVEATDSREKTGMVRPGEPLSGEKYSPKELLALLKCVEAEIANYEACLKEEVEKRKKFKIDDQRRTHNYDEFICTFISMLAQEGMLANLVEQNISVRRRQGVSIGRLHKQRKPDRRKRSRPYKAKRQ
UniProt Q04771, 21-509: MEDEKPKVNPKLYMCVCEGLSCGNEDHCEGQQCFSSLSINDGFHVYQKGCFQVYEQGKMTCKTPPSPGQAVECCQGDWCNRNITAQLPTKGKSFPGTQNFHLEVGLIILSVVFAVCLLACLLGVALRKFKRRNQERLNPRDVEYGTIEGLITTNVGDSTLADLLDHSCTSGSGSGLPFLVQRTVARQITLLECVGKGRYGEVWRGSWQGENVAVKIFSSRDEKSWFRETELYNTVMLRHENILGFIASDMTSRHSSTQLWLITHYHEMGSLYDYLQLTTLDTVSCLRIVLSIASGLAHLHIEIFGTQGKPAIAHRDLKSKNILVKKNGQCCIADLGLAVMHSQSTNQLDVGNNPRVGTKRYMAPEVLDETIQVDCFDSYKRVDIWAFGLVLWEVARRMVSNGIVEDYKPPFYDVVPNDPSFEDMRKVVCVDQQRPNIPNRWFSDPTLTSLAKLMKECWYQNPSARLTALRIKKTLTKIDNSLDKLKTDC
UniProt Q96GD4, whole entry: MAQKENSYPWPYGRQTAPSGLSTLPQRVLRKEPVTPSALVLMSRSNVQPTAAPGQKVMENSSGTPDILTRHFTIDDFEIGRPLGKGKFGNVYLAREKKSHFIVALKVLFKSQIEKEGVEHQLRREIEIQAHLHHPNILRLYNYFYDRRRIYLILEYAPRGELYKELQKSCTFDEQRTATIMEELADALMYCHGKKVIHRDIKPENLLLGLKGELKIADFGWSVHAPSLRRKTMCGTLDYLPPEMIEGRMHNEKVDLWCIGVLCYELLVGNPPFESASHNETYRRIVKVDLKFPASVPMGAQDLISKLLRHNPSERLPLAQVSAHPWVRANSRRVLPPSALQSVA
UniProt O75604, 251-605: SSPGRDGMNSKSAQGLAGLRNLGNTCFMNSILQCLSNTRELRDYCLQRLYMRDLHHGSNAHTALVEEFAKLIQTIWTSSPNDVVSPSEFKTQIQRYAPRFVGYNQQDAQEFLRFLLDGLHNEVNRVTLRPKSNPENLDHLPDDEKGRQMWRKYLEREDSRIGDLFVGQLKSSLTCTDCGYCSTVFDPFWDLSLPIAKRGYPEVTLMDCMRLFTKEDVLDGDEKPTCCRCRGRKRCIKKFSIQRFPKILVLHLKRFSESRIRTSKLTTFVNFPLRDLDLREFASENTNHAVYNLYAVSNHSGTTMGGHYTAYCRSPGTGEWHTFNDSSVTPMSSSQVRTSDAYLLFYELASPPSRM
UniProt Q96BR1: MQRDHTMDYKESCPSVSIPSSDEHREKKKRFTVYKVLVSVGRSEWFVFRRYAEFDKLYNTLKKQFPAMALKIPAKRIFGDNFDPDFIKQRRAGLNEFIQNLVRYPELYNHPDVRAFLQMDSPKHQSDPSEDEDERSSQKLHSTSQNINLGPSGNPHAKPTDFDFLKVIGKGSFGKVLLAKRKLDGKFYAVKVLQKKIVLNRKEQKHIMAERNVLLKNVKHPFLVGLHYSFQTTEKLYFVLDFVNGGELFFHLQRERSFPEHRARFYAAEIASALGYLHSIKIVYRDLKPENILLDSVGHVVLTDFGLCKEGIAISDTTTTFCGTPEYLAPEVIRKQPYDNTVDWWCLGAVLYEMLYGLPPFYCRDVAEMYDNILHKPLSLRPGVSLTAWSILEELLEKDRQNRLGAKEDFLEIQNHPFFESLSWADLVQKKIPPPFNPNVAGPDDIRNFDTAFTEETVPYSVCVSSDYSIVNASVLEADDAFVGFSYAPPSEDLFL
UniProt Q86UX6: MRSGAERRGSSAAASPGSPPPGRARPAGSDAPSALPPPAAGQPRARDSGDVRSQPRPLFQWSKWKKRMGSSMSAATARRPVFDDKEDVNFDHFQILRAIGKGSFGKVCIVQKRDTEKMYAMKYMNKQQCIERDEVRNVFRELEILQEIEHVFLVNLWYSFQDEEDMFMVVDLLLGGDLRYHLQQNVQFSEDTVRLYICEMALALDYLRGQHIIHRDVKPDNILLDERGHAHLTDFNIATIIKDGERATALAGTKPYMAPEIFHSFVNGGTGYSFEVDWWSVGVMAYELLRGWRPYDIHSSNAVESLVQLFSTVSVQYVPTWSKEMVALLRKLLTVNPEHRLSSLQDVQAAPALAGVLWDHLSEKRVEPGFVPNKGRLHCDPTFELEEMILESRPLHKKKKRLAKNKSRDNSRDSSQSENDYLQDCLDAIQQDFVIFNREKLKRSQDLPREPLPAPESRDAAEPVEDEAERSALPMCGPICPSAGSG
UniProt Q8NE63: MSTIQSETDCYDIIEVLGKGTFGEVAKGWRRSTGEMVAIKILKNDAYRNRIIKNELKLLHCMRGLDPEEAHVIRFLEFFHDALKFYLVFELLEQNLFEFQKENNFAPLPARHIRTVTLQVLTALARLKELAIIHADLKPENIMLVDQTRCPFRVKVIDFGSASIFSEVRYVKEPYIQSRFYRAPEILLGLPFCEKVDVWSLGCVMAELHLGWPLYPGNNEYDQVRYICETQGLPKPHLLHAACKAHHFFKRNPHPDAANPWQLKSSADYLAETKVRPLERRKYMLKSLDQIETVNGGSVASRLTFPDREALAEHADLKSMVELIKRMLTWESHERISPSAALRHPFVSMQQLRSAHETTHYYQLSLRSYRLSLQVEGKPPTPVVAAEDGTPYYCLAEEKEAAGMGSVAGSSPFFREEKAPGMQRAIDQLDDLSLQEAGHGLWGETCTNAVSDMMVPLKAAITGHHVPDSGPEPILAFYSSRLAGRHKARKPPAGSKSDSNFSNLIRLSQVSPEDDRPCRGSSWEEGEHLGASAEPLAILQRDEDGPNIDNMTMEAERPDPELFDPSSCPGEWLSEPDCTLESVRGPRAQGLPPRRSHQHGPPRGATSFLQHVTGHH
UniProt O00444: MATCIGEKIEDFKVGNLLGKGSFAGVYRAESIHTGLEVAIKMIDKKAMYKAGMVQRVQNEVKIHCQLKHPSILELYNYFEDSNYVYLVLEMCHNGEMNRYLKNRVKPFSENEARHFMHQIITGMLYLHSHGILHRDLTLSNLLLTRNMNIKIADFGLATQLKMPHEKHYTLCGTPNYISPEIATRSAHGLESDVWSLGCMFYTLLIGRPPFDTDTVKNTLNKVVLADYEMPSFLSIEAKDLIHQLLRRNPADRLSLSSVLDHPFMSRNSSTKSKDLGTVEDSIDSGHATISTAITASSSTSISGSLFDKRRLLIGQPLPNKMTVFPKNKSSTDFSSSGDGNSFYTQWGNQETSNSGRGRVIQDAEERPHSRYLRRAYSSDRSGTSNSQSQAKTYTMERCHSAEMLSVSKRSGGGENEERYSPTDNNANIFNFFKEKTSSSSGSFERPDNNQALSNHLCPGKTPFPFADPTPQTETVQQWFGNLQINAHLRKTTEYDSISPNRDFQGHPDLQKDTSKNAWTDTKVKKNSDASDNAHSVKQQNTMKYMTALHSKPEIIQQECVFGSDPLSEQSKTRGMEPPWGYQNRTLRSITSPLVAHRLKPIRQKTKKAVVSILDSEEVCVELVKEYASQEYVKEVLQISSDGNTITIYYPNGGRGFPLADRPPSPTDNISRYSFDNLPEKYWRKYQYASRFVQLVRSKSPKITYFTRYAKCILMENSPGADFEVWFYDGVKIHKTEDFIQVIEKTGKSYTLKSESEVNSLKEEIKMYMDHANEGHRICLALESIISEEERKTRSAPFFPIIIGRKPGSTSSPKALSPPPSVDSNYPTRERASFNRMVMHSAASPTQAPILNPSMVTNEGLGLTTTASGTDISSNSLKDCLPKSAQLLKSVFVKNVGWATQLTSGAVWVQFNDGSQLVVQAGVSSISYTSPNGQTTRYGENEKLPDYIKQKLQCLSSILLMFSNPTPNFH

CC(C)C[C@@H](NC(=O)C1(C(F)(F)F)CCCCC1)C(=O)Nc1nnc(Cc2ccc(C#N)cc2)s1 [Compound 21, N-[(1R)-1-[[5-[(4-Cyanophenyl)methyl]-1,3,4-thiadiazol-2-yl]carbamoyl]-3-methyl-butyl]-1-(trifluoromethyl)cyclohexanecarboxamide]
inhibition at 10 µM [1]: 8.85%
inhibition at 10 µM [2]: -4.14%
inhibition at 10 µM [3]: -1.54%
inhibition at 10 µM [4]: 15.3%
inhibition at 10 µM [5]: 2.28%
inhibition at 10 µM [6]: -1.49%
inhibition at 10 µM [7]: 13%
inhibition at 10 µM [8]: 8.28%
inhibition at 10 µM [9]: -0.1%
inhibition at 10 µM [10]: -3.39%
inhibition at 10 µM [11]: -0.68%
inhibition at 10 µM [12]: 1.36%
inhibition at 10 µM [13]: -5.51%
inhibition at 10 µM [14]: 16.5%
remaining activity at 1 µM [15]: 111%
remaining activity at 10 µM [15]: 106%
inhibition at 10 µM [16]: 4.53%
inhibition at 10 µM [17]: -9.71%
inhibition at 10 µM [18]: -14.5%
inhibition at 10 µM [19]: 21.1%
inhibition at 10 µM [20]: 9.31%
inhibition at 10 µM [21]: 21.9%
inhibition at 10 µM [22]: -15.6%
inhibition at 10 µM [23]: 14.3%
inhibition at 10 µM [24]: 1.35%
% Inh. [25]: -7
remaining activity at 10 µM [26]: 79%
remaining activity at 50 µM [26]: 73%
remaining activity at 1 µM [27]: 92%
remaining activity at 10 µM [27]: 97%
inhibition at 10 µM [28]: 6.43%
inhibition at 10 µM [29]: 2.45%
inhibition at 10 µM [30]: 3.09%
inhibition at 10 µM [31]: -4.86%
inhibition at 10 µM [32]: 7.73%
inhibition at 10 µM [33]: 6.32%
IC50 [34]: > 30 µM
inhibition at 10 µM [35]: 12.9%
remaining activity at 1 µM [36]: 93%
remaining activity at 10 µM [36]: 102%
IC50 [37]: > 20 µM
remaining activity at 1 µM [38]: 123%
remaining activity at 10 µM [38]: 102%
inhibition at 10 µM [39]: 5.6%
inhibition at 10 µM [40]: -10.8%
inhibition at 10 µM [41]: -0.63%
inhibition at 10 µM [42]: 17.3%

CC(C)C[C@H](NC(=O)C1(C(F)(F)F)CCCCC1)C(=O)Nc1nnc(Cc2ccc(C#N)cc2)s1 [Compound 22, CC(C)C[C@H](NC(=O)C1(CCCCC1)C(F)(F)F)C(=O)Nc2nnc(Cc3ccc(cc3)C#N)s2]
inhibition at 10 µM [1]: -3.97%
inhibition at 10 µM [2]: 0.18%
inhibition at 10 µM [3]: -4.59%
inhibition at 10 µM [4]: 4.11%
inhibition at 10 µM [5]: 1.06%
inhibition at 10 µM [6]: -2.57%
inhibition at 10 µM [7]: 13%
inhibition at 10 µM [8]: 4.43%
inhibition at 10 µM [9]: -2.02%
inhibition at 10 µM [10]: -3.43%
inhibition at 10 µM [11]: 5.89%
inhibition at 10 µM [12]: -0.72%
inhibition at 10 µM [13]: -10.7%
inhibition at 10 µM [14]: 29.9%
remaining activity at 1 µM [15]: 100%
remaining activity at 10 µM [15]: 92.4%
inhibition at 10 µM [16]: 5.05%
inhibition at 10 µM [17]: -27.2%
inhibition at 10 µM [18]: -17.2%
inhibition at 10 µM [19]: 8.25%
inhibition at 10 µM [20]: 6.07%
inhibition at 10 µM [21]: 11.9%
inhibition at 10 µM [22]: -21.6%
inhibition at 10 µM [23]: 9.85%
inhibition at 10 µM [24]: -1.13%
% Inh. [25]: -5
remaining activity at 10 µM [26]: 79%
remaining activity at 50 µM [26]: 60%
remaining activity at 1 µM [27]: 101%
remaining activity at 10 µM [27]: 100%
inhibition at 10 µM [28]: -2.22%
inhibition at 10 µM [29]: 7.05%
inhibition at 10 µM [30]: -8.47%
inhibition at 10 µM [31]: -8.5%
inhibition at 10 µM [32]: 6.43%
inhibition at 10 µM [33]: 6.97%
IC50 [34]: > 30 µM
inhibition at 10 µM [35]: -1.5%
remaining activity at 1 µM [36]: 100%
remaining activity at 10 µM [36]: 82%
IC50 [37]: > 20 µM
remaining activity at 1 µM [38]: 99%
remaining activity at 10 µM [38]: 106%
inhibition at 10 µM [39]: 6.31%
inhibition at 10 µM [40]: -23.2%
inhibition at 10 µM [41]: -1.7%
inhibition at 10 µM [42]: 9.66%

Reference: paper PMC10009755, “Discovery and Characterization of BAY-805, a Potent and Selective Inhibitor of Ubiquitin-Specific Protease USP21” (Journal of Medicinal Chemistry, 2023)
